Measured values taken from PMC8291497 (ACS Chemical Biology, 2021).
Positions count from the first letter of the chain named.

Tests used:
[1] = biological target: T1, Mint2 PTB 364-538 (without the ARM linker) (Homo sapiens, UniProt Q99767, Y524W); test: Stopped flow binding kinetics, APP peptides to PTB
T1 construct: PTB without the ARM linker (residues 364–538); made in house; host or cells: Escherichia coli BL21(DE3)pLysS
T1 sequence (Q99767 364-538 Y524W): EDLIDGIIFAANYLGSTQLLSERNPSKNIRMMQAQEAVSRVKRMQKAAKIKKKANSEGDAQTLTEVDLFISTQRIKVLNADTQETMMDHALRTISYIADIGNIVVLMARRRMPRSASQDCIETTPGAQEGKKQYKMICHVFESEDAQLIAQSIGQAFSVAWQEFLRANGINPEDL
Description: (§1) Kinetic binding rate constants were obtained using an upgraded SX17 stopped flow spectrometer (Applied Photophysics), and all experiments were conducted at 25 °C in 500 mM NaCl and 25 mM HEPES (pH 7.4). The relatively high NaCl concentration was used to improve the solubility of the proteins. The change in tryptophan fluorescence was measured using a band-pass filter (excitation at 280 nm and emission at 330 ± 30 nm) when mixing varying concentrations (2–50 μM) of the dansyl peptides with 1 μM protein or 0.5 μM semisynthetic proteins. […] For PTB variants, we used the kobs value from the fast kinetic phase for the analysis. […] We report the errors in kon and koff from the curve fitting. […] For these koff determinations, we report the standard error of the mean of three replicates. Φ values were defined as ΔΔGTS/ΔΔGeq, where ΔΔGTS = RT ln(kon^WT/kon^mut.) and ΔΔGeq = RT ln(Kd^mut./Keq^WT). Calculated coupling free energies were defined as ΔΔΔGEq = RT ln(Kd^mut.:WTKd^WT:mut./Kd^WT:WTKd^mut.:mut.) or ΔΔΔGTS = RT ln(kon^WT:WTkon^mut.:mut./kon^mut.:WTkon^WT:mut.) as previously described.[27] Propagated errors are reported.

[2] = biological target: T2, Mint2 PARM 364-570 (Y524W, Y543A) (Homo sapiens, UniProt Q99767, Y524W/Y543A); test: Stopped flow binding kinetics, APP peptides to PARM^Y543A; set-up: PARM domain (residues 364–570, i.e., PTB and the ARM linker); made in house; host or cells: Escherichia coli BL21(DE3)pLysS
T2 sequence (Q99767 364-570 Y524W/Y543A): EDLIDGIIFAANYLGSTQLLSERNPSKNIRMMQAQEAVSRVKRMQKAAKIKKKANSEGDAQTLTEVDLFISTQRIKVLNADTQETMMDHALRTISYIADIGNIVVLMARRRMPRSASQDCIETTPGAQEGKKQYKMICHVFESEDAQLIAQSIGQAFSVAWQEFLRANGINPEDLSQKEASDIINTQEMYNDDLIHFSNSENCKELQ
Description: as §1

[3] = biological target: T3, Mint2 PARM 364-570 (Y524W, Y543E) (Homo sapiens, UniProt Q99767, Y524W/Y543E); test: Stopped flow binding kinetics, APP peptides to PARM^Y543E; set-up: PARM domain (residues 364–570, i.e., PTB and the ARM linker); made in house; host or cells: Escherichia coli BL21(DE3)pLysS
T3 sequence (Q99767 364-570 Y524W/Y543E): T2 sequence (Q99767 364-570 Y524W/Y543A) with A180E
Description: as §1

[4] = biological target: T4, Mint2 PARM 364-570 (Y524W), pWT PARM (PTB domain and ARM linker) (Homo sapiens, UniProt Q99767, Y524W); test: Stopped flow binding kinetics, APP peptides to PARM (pseudo-wild type)
T4 construct: PARM domain (residues 364–570, i.e., PTB and the ARM linker) containing the Y524W mutation; made in house; host or cells: Escherichia coli BL21(DE3)pLysS
T4 sequence (Q99767 364-570 Y524W): T2 sequence (Q99767 364-570 Y524W/Y543A) with A180Y
Description: as §1

Row | Structure (SMILES) | Kd [1] [µM] | Kd [2] [µM] | Kd [3] [µM] | Kd [4] [µM]
1 | C[C@@H](O)[C@H](NC(=O)[C@@H]1CCCN1C(=O)[C@H](CC(N)=O)NC(=O)[C@H](CCC(=O)O)NC(=O)[C@H](Cc1ccc(O)cc1)NC(=O)CNC(=O)[C@H](CC(N)=O)NC(=O)CNC(=O)[C@H](CC(N)=O)NC(=O)[C@H](CC(N)=O)NS(=O)(=O)c1cccc2c(N(C)C)cccc12)C(=O)N[C@@H](Cc1ccc(O)cc1)C(=O)N[C@@H](CCCCN)C(=O)NCC(=O)N[C@@H](Cc1ccccc1)C(=O)N[C@@H](CCC(=O)O)C(=O)O [Peptide F764G] | 8.3 | 133 ± 4 |  | 
2 | C[C@@H](O)[C@H](NC(=O)[C@@H]1CCCN1C(=O)[C@H](CC(N)=O)NC(=O)[C@H](CCC(=O)O)NC(=O)[C@H](Cc1ccc(O)cc1)NC(=O)CNC(=O)[C@H](CC(N)=O)NC(=O)CNC(=O)[C@H](CC(N)=O)NC(=O)[C@H](CC(N)=O)NS(=O)(=O)c1cccc2c(N(C)C)cccc12)C(=O)N[C@@H](Cc1ccc(O)cc1)C(=O)NCC(=O)N[C@@H](Cc1ccccc1)C(=O)N[C@@H](Cc1ccccc1)C(=O)N[C@@H](CCC(=O)O)C(=O)O [Peptide K763G] | 1.2 |  | 11 ± 0.4 | 28 ± 0.8
3 | C[C@H](NC(=O)[C@H](CC(N)=O)NC(=O)[C@H](CCC(=O)O)NC(=O)[C@H](Cc1ccc(O)cc1)NC(=O)CNC(=O)[C@H](CC(N)=O)NC(=O)CNC(=O)[C@H](CC(N)=O)NC(=O)[C@H](CC(N)=O)NS(=O)(=O)c1cccc2c(N(C)C)cccc12)C(=O)N[C@H](C(=O)N[C@@H](Cc1ccc(O)cc1)C(=O)N[C@@H](CCCCN)C(=O)N[C@@H](Cc1ccccc1)C(=O)N[C@@H](Cc1ccccc1)C(=O)N[C@@H](CCC(=O)O)C(=O)O)[C@@H](C)O [Peptide P760A] | 2.3 | 19 ± 0.7 | 19 ± 0.2 | 56 ± 2
4 | C[C@@H](O)[C@H](NC(=O)CNC(=O)[C@H](CC(N)=O)NC(=O)[C@H](CCC(=O)O)NC(=O)[C@H](Cc1ccc(O)cc1)NC(=O)CNC(=O)[C@H](CC(N)=O)NC(=O)CNC(=O)[C@H](CC(N)=O)NC(=O)[C@H](CC(N)=O)NS(=O)(=O)c1cccc2c(N(C)C)cccc12)C(=O)N[C@@H](Cc1ccc(O)cc1)C(=O)N[C@@H](CCCCN)C(=O)N[C@@H](Cc1ccccc1)C(=O)N[C@@H](Cc1ccccc1)C(=O)N[C@@H](CCC(=O)O)C(=O)O [Peptide P760G] | 23 ± 10 |  |  | 
5 | C[C@@H](O)[C@H](NC(=O)[C@@H]1CCCN1C(=O)[C@H](CC(N)=O)NC(=O)[C@H](CCC(=O)O)NC(=O)[C@H](Cc1ccc(O)cc1)NC(=O)CNC(=O)[C@H](CC(N)=O)NC(=O)CNC(=O)[C@H](CC(N)=O)NC(=O)[C@H](CC(N)=O)NS(=O)(=O)c1cccc2c(N(C)C)cccc12)C(=O)N[C@@H](Cc1ccccc1)C(=O)N[C@@H](CCCCN)C(=O)N[C@@H](Cc1ccccc1)C(=O)N[C@@H](Cc1ccccc1)C(=O)N[C@@H](CCC(=O)O)C(=O)O [Peptide Y762F] | 0.22 | 1.2 | 1.6 | 
6 | C[C@@H](O)[C@H](NC(=O)[C@@H]1CCCN1C(=O)[C@H](CC(N)=O)NC(=O)[C@H](CCC(=O)O)NC(=O)[C@H](Cc1ccc(O)cc1)NC(=O)CNC(=O)[C@H](CC(N)=O)NC(=O)CNC(=O)[C@H](CC(N)=O)NC(=O)[C@H](CC(N)=O)NS(=O)(=O)c1cccc2c(N(C)C)cccc12)C(=O)N[C@@H](Cc1ccc(OP(=O)(O)O)cc1)C(=O)N[C@@H](CCCCN)C(=O)N[C@@H](Cc1ccccc1)C(=O)N[C@@H](Cc1ccccc1)C(=O)N[C@@H](CCC(=O)O)C(=O)O [Peptide Y762pY] | 7.8 | 101 ± 5 | 91 ± 13 | 
